Data published in patent US10752596B2, “Nitrogen-containing heteroaryl compound and pharmaceutical use thereof” (JAPAN TOBACCO INC., priority 2017, dated 2020).

Amino acid sequences for entries named in this document (tags omitted). Chains listed by the source or under a name are the forms on record and can include a tag or linker.
UniProt Q9NRM0, other isoform, or with tags, fused parts or gaps: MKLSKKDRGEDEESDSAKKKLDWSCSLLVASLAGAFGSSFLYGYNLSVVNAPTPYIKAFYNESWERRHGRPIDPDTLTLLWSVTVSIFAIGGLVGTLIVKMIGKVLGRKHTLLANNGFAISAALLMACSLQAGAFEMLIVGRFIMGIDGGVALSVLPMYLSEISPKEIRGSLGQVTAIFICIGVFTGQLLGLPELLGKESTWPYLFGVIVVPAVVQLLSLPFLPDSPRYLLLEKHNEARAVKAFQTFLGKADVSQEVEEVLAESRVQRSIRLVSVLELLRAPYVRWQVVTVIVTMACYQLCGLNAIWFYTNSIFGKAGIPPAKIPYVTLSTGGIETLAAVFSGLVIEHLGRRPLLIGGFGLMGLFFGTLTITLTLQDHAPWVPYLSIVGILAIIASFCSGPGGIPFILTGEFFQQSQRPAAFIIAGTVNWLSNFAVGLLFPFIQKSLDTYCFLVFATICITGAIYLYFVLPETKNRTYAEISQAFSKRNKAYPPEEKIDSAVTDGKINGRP

Target: human GLUT9 (Homo sapiens (Human), UniProt Q9NRM0)
Test: Evaluation of human GLUT9 inhibitory activity ([14C] uric acid uptake in human GLUT9 expressing HEK293T cells transduced with Uricase/Hyper)
Assay type: cell-based
Conditions: human GLUT9 stably expressing HEK293T cells; for IC50: final 300 μM uric acid, 6 min, read-out: humans GLUT9 inhibitory activity (IC50 value (μM))
Procedure: A method for measuring GLUT9 inhibitory activity using human GLUT9 expressing cells transduced with Uricase/Hyper is shown hereinafter. GLUT9 inhibitory activity ([…]) of the test compound was calculated based on the intracellular uptake amount of labeled uric acid ([^14C] uric acid) transported by GLUT9.
1. Preparation of Human GLUT9 Expression Plasmid
Human GLUT9S coding region (NM_001001290.1) was amplified by PCR method using PrimeSTAR MAX DNA Polymerase (Takara Bio). The obtained PCR product was subjected to agarose gel electrophoresis, and the desired size of PCR product was purified by QIAquick Gel Extraction Kit (QIAGEN). Next, pEBMulti-Bsd vector (Wako Pure Chemical Industries, Ltd.) was subjected to digestion using restriction enzymes SalI and EcoR V, and linked to the PCR product containing GLUT9S by In-Fusion reaction using In-Fusion HD Cloning Kit (Takara Bio). XL10-Gold Competent Cells (Agilent Technologies) were transformed in In-Fusion reaction solution, and the obtained transfectants were cultured with shaking overnight in LB medium to which Blasticidin S HCl (Thermo Fisher Scientific) was added. Human GLUT9 expression plasmid DNA was prepared from the collected transfectants using EndoFree Plasmid Kit (Takara Bio).
2. Establish of Human GLUT9 Stably Expressing Cell
HEK293T cells (American Type Culture Collection, DS Pharma Biomedical) were seeded in a 6 well plate at 1×10^6 cells/well. Next day, human GLUT9 expression plasmid was transfected by using Lipofectamine 3000 Reagent (Thermo Fisher Scientific) as follows. Lipofectamine 3000 Reagent (5 μL) was diluted with Opti-MEM (125 μL, Thermo Fisher Scientific). Separately, plasmid DNA (2.5 μg) was diluted with Opti-MEM (125 μL), and P3000 Reagent (5 μL) was added thereto. The obtained solution was mixed with the previously obtained diluted solution, and the mixture was left stand at room temperature for 5 min, and added to the cells. Next day, the transfected cells were diluted and reseeded in a 6 well plate at 4×10^5 cells/well, and drug selection was performed in the presence of 30 μg/mL of Blasticidin S HCl, and thereby, Blasticidin-resistant human GLUT9 stably expressing cell line was established. Mock cells were prepared by introducing pEBMulti-Bsd vector into HEK293T cells in a similar manner.
3. Preparation of Uricase/Hyper Expression Plasmid
Uricase/Hyper expression plasmid was prepared by linking the coding regions of Aspergillus Flavus-derived uricase gene and pHyPer-Cyto vector (Evrogen) HyPer gene to the pEBMulti-Hyg vector (Wako Pure Chemical Industries, Ltd.) and then introducing it. The preparation method was performed by reference to Gout and Nucleic Acid Metabolism 2013, 37(2), 93-101, and seven repeated linker sequence of glycine-glycine-glycine-serine was prepared herein.
4. Preparation of Human GLUT9-Uricase/Hyper Coexpressing Cell
Human GLUT9 stably expressing cells were seeded at 3.6×10^7 cells per 225 cm^2 flask. Next day, Uricase/Hyper expression plasmid was transfected by using Lipofectamine 3000 Reagent as follows. Lipofectamine 3000 Reagent (40 μL) was diluted with Opti-MEM (750 μL). Separately, plasmid DNA (20 μg) was diluted with Opti-MEM (750 μL), and P3000 Reagent (40 μL) was added thereto. The obtained solution was mixed with the previously obtained diluted solution, and the mixture was left stand at room temperature for 5 min, and added to the cells. Next day, transfected cells were collected to prepare human GLUT9-Uricase/Hyper coexpressing cells.
5. Evaluation of GLUT9 Inhibitory Activity
Uricase/Hyper transiently-transfected human GLUT9 stably expressing cells or mock cells (blank) were seeded in a 96 well plate (Corning) at 1.6×10^5 cells/well, and cultured overnight at 37° C., 5% CO2. D-MEM/high glucose (Wako Pure Chemical Industries, Ltd.) containing 10% Fetal Bovine Serum (Lifetechnology) and 100 units/ml penicillin/100 μg/ml streptomycin (GIBCO) was used as a medium. […]

| IC50 [µM] | inhibition at 10 µM (HEK-293T, 10 μM compound, read-out: GLUT9 inhibitory rate at 10 μM of compound) [%] | Structure (SMILES) |
| --- | --- | --- |
| 0.14 |  | CCCCc1cnc(-c2ccc(OC(F)F)cc2)c(-c2ccc(C(=O)O)cc2)n1 [Example 90] |
| 0.139 |  | COc1ccc(-c2ncc(CCCOCC(F)(F)F)cc2-c2ccc(C(=O)O)cc2)cc1 [Example 104] |
| 0.258 |  | COCCCc1cnc(-c2cc(F)c(OC)c(F)c2)c(-c2ccc(C(=O)O)c(Cl)c2)c1 [Example 122] |
| 0.183 |  | COCCCc1cnc(-c2cc(F)c(OC)c(F)c2)c(-c2ccc(C(=O)O)c(O)c2)c1 [Example 124] |
| 0.0732 |  | CCOCCc1cnc(-c2cc(F)c(OC)c(F)c2)c(-c2ccc(CCC(=O)O)cc2)c1 [Example 128] |
| 0.327 |  | CCCOCc1cnc(-c2ccc(OC)cc2)c(-c2ccc(CCC(=O)O)cc2)c1 [Example 144] |
| 0.106 |  | CCCOCc1cnc(-c2cc(F)c(OC)c(F)c2)c(-c2ccc(C(=O)O)cc2)c1 [Example 145] |

More lines, now with the values behind:

| Structure (SMILES) | IC50 [µM] | inhibition at 10 µM (HEK-293T, 10 μM compound, read-out: GLUT9 inhibitory rate at 10 μM of compound) [%] |
| --- | --- | --- |
| CCCCc1cnc(-c2ccc(OC)cc2)c(-c2ccc(C(=O)O)cc2C)n1 [Example 4] | 0.612 |  |
| CCCCc1cnc(-c2ccc(C(F)(F)F)cc2)c(-c2ccc(C(=O)O)cc2)n1 [Example 13] | 0.219 |  |
| CCCCc1cnc(-c2ccc(C(F)(F)F)c(Cl)c2)c(-c2ccc(C(=O)O)cc2)n1 [Example 27] | 0.255 |  |
| COc1ccc(-c2ncc(C3CCCCC3)cc2-c2ccc(C(=O)O)cc2)cc1 [Example 46] | 2.75 |  |
| COc1ccc(-c2ncc([C@H]3CC[C@@H](OC)CC3)cc2-c2ccc(C(=O)O)cc2)cc1 [Example 53] | 0.46 |  |
| COc1ccc(-c2ncc([C@H]3CC[C@H](OC)CC3)cc2-c2ccc(C(=O)O)cc2)cc1 [Example 54] |  | 43 |
| COCCCc1cnc(-c2cc(F)c(OC)c(F)c2)c(-c2ccc(C(=O)O)cc2)n1 [Example 67, 4-(3-(3,5-difluoro-4-methoxyphenyl)-6-(3-methoxypropyl)pyrazin-2-yl)benzoic Acid] | 0.102 |  |
| CCCCc1cnc(-c2ccc(OCC)cc2)c(-c2ccc(C(=O)O)cc2)n1 [Example 82] | 0.245 |  |
| COc1ccc(-c2ncc(CCC(C)C)cc2-c2ccc(C(=O)O)cc2)cc1 [Example 85] | 0.853 |  |
